Results on 1 substance are retold here after patent US20200253926A1, “THERAPEUTIC COMBINATIONS” (SUPERSALUS, INC., priority 2019, published 2020).

The format of this data set is physicochemical. Here is the method:
Zofenopril calcium was slurried in ACN. Two molar equivalents of HCl were added. The materials were allowed to slurry overnight. […] The indexed XRPD pattern for the material is shown in FIGS. 1a and 1b. ^1H NMR (DMSO-d6) results were obtained for zofenopril calcium chloride form A sample 7537-40-02 and shown to be consistent with zofenopril with trace amounts of nicorandil and ACN (FIG. 2). DSC for zofenopril calcium chloride is shown as FIG. 3. On DSC this material has an onset at 162° C. This is in contrast to DSC results for zofenopril calcium which has an onset of 250.3° C. TGA results for zofenopril calcium chloride are provided in FIG. 4, there is 1.4% weight loss from 38 to 109° C. and 4.2% weight loss from 110 to 203° C. Based on IC, the calcium to zofenopril ratio is 0.99 to 1, and the chloride to zofenopril ratio is 0.89 to 1, which are consistent with 1:1:1 zofenopril calcium chloride. […] On the sorption step up to 65% RH, the material gained 1.2% weight. Above this RH, the material gained an additional 36.9% weight. […] Most of the weight was lost on desorption with significant hysteresis. The material recovered after the DVS experiment was identified as Zofenopril Calcium Chloride Form A by XRPD (FIG. 6).
This oil, which is zofenopril free acid, was dissolved in ACN. NaOH in water was added to the dissolved zofenopril free acid solution. […]

For the substance “zofenopril calcium chloride [Zofenopril calcium chloride form A]”, the aqueous solubility result is listed as “approximately 0.1 mg/ml”.
